In patent US20150166625A1 (Sanofi, priority 2013, published 2015):
Converted amounts (≈) assume the structure as drawn.

Legend:
physchem = format: physicochemical
Text: As HPLC/UPLC method, method D or E has been used.

[1] = format: physicochemical; conditions: buffer, 168 h; for Stability pH4.5 (% remaining peptide): pH 4.5; for Stability pH7.4 (% remaining peptide): pH 7.4
Description: After that time course, the sample was centrifuged for 20 min at 4000 rpm and the supernatant was analysed with HPLC-UV. For determination of the amount of the remaining peptide, the peak areas of the target compound at t0 and t7 were compared, resulting in “% remaining peptide”, following the equation % remaining peptide=[(peak area peptide t7)×100]/peak area peptide t0. The chemical stability is expressed as “% remaining peptide”. As HPLC/UPLC method, method D or E has been used.

| SMILES | solubility at 2 h (physchem; pH 4.5) | solubility at 2 h (physchem; pH 7.4) | Stability pH4.5 (% remaining peptide) [1] | Stability pH7.4 (% remaining peptide) [1] |
| --- | --- | --- | --- | --- |
| CC[C@H](C)[C@H](NC(=O)[C@H](CC(C)C)NC(=O)[C@H](Cc1c[nH]c2ccccc12)NC(=O)[C@H](CCC(=O)O)NC(=O)[C@@H](NC(=O)[C@H](Cc1ccccc1)NC(=O)[C@H](CC(=O)O)NC(=O)[C@H](CCCNC(=N)N)NC(=O)[C@H](C)NC(=O)[C@H](CC(C)C)NC(=O)[C@H](CCC(N)=O)NC(=O)[C@H](CCC(=O)O)NC(=O)[C@H](CC(=O)O)NC(=O)[C@H](CC(C)C)NC(=O)[C@H](CCC(N)=O)NC(=O)[C@H](CCCCN)NC(=O)[C@H](CO)NC(=O)[C@H](CC(C)C)NC(=O)[C@H](CC(=O)O)NC(=O)[C@H](CO)NC(=O)[C@@H](NC(=O)[C@H](Cc1ccccc1)NC(=O)[C@@H](NC(=O)CNC(=O)[C@H](Cc1c[nH]cn1)NC(=O)C(C)(C)NC(=O)[C@@H](N)Cc1c[nH]cn1)[C@@H](C)O)[C@@H](C)O)[C@@H](C)CC)C(=O)N[C@@H](C)C(=O)NCC(=O)NCC(=O)N1CCC[C@H]1C(=O)N[C@@H](CO)C(=O)N[C@@H](CO)C(=O)NCC(=O)N[C@@H](C)C(=O)N1CCC[C@H]1C(=O)N1CCC[C@H]1C(=O)N1CCC[C@H]1C(=O)N[C@@H](CO)C(N)=O [SEQ ID NO: 5, H-Aib-HGTFTSDLSKQLDEQLARDFIEWLIAGGPSSGAPPPS-NH2] | 934 µg/mL (≈ 225 µM) | > 1000 µg/mL | 100% | 77.5% |
| CC[C@H](C)[C@H](NC(=O)[C@H](CC(C)C)NC(=O)[C@H](Cc1c[nH]c2ccccc12)NC(=O)[C@H](CCC(=O)O)NC(=O)[C@@H](NC(=O)[C@H](Cc1ccccc1)NC(=O)[C@H](CC(=O)O)NC(=O)[C@H](CCCCN)NC(=O)[C@H](C)NC(=O)[C@H](CC(C)C)NC(=O)[C@H](CCC(N)=O)NC(=O)[C@H](CCC(=O)O)NC(=O)[C@H](CC(=O)O)NC(=O)[C@H](CC(C)C)NC(=O)[C@H](CCC(N)=O)NC(=O)[C@H](CCCCN)NC(=O)[C@H](CO)NC(=O)[C@H](CC(C)C)NC(=O)[C@H](CC(=O)O)NC(=O)[C@H](CO)NC(=O)[C@@H](NC(=O)[C@H](Cc1ccccc1)NC(=O)[C@@H](NC(=O)CNC(=O)[C@H](Cc1c[nH]cn1)NC(=O)C(C)(C)NC(=O)[C@@H](N)Cc1c[nH]cn1)[C@@H](C)O)[C@@H](C)O)[C@@H](C)CC)C(=O)N[C@@H](C)C(=O)NCC(=O)NCC(=O)N1CCC[C@H]1C(=O)N[C@@H](CO)C(=O)N[C@@H](CO)C(=O)NCC(=O)N[C@@H](C)C(=O)N1CCC[C@H]1C(=O)N1CCC[C@H]1C(=O)N1CCC[C@H]1C(=O)N[C@@H](CO)C(N)=O [compound 9] | 910 µg/mL (≈ 221 µM) | 930 µg/mL (≈ 226 µM) | 100.0% | 99.5% |
